Measured values reported in patent US20150368338A1 (Janssen / Centocor, published 2015).

Target: T1, IFN-αB2 (human, UniProt P32881 24-189)
T1 construct: also called IFN-α8; IFN alpha B2
Assay: ProteOn, one antigen concentration

Binder | Kd [pM]
IFWM3291 (antibody, V domains shown, VH IFWH591, VL IFWL999; converted mAb; also called IFWB3026) VH: EVQLVQSGAEVKKPGESLKISCKGSGYSFTSYWIGWVRQMPGKGLEWMGIIDPSDSDTRYSPSFQGQVTISADKSISTAYLQWSSLKASDTAMYYCARHPGLNWAPDFDYWGQGTLVTVSS VL: DIQMTQSPSSLSASVGDRVTITCRASQSIDEFLNWYQQKPGKAPKLLIYFASSLQSGVPSRFSGSGSGTDFTLTISSLQPEDFATYYCQQAHSFPLTFGQGTKVEIK | 60
IFWM3308 (antibody, V domains shown, VH IFWH591, VL IFWL1004; converted mAb; also called IFWB3043) VH: EVQLVQSGAEVKKPGESLKISCKGSGYSFTSYWIGWVRQMPGKGLEWMGIIDPSDSDTRYSPSFQGQVTISADKSISTAYLQWSSLKASDTAMYYCARHPGLNWAPDFDYWGQGTLVTVSS VL: DIQMTQSPSSLSASVGDRVTITCRASQSIAEFLNWYQQKPGKAPKLLIYFASSLQSGVPSRFSGSGSGTDFTLTISSLQPEDFATYYCQQSIDFPLTFGQGTKVEIK | 49
IFWM3302 (antibody, V domains shown, VH IFWH591, VL IFWL991; converted mAb; also called IFWB3037) VH: EVQLVQSGAEVKKPGESLKISCKGSGYSFTSYWIGWVRQMPGKGLEWMGIIDPSDSDTRYSPSFQGQVTISADKSISTAYLQWSSLKASDTAMYYCARHPGLNWAPDFDYWGQGTLVTVSS VL: DIQMTQSPSSLSASVGDRVTITCRASQSINRFLNWYQQKPGKAPKLLIYAASSLQSGVPSRFSGSGSGTDFTLTISSLQPEDFATYYCQQAIDLPFTFGQGTKVEIK | 54
IFWM3318 (antibody, V domains shown, VH IFWH591, VL IFWL1038; converted mAb; also called IFWB3053) VH: EVQLVQSGAEVKKPGESLKISCKGSGYSFTSYWIGWVRQMPGKGLEWMGIIDPSDSDTRYSPSFQGQVTISADKSISTAYLQWSSLKASDTAMYYCARHPGLNWAPDFDYWGQGTLVTVSS VL: DIQMTQSPSSLSASVGDRVTITCRASQSISEYLNWYQQKPGKAPKLLIYFASSLQSGVPSRFSGSGSGTDFTLTISSLQPEDFATYYCQQSHSLPITFGQGTKVEIK | 48
IFWM3304 (antibody, V domains shown, VH IFWH591, VL IFWL997; converted mAb; also called IFWB3039) VH: EVQLVQSGAEVKKPGESLKISCKGSGYSFTSYWIGWVRQMPGKGLEWMGIIDPSDSDTRYSPSFQGQVTISADKSISTAYLQWSSLKASDTAMYYCARHPGLNWAPDFDYWGQGTLVTVSS VL: DIQMTQSPSSLSASVGDRVTITCRASQSIGSALNWYQQKPGKAPKLLIYFASSLQSGVPSRFSGSGSGTDFTLTISSLQPEDFATYYCQQSYDFPLTFGQGTKVEIK | 40
IFWM3309 (antibody, V domains shown, VH IFWH591, VL IFWL1006; converted mAb; also called IFWB3044) VH: EVQLVQSGAEVKKPGESLKISCKGSGYSFTSYWIGWVRQMPGKGLEWMGIIDPSDSDTRYSPSFQGQVTISADKSISTAYLQWSSLKASDTAMYYCARHPGLNWAPDFDYWGQGTLVTVSS VL: DIQMTQSPSSLSASVGDRVTITCRASQSIGGFLNWYQQKPGKAPKLLIYFASSLQSGVPSRFSGSGSGTDFTLTISSLQPEDFATYYCQQSYSLPITFGQGTKVEIK | 41
IFWM3315 (antibody, V domains shown, VH IFWH591, VL IFWL1017; converted mAb; also called IFWB3050) VH: EVQLVQSGAEVKKPGESLKISCKGSGYSFTSYWIGWVRQMPGKGLEWMGIIDPSDSDTRYSPSFQGQVTISADKSISTAYLQWSSLKASDTAMYYCARHPGLNWAPDFDYWGQGTLVTVSS VL: DIQMTQSPSSLSASVGDRVTITCRASQSITSSLNWYQQKPGKAPKLLIYFASSLQSGVPSRFSGSGSGTDFTLTISSLQPEDFATYYCQQSFDLPLTFGQGTKVEIK | 92
IFWM3310 (antibody, V domains shown, VH IFWH591, VL IFWL1007; converted mAb; also called IFWB3045) VH: EVQLVQSGAEVKKPGESLKISCKGSGYSFTSYWIGWVRQMPGKGLEWMGIIDPSDSDTRYSPSFQGQVTISADKSISTAYLQWSSLKASDTAMYYCARHPGLNWAPDFDYWGQGTLVTVSS VL: DIQMTQSPSSLSASVGDRVTITCRASQSIGKSLNWYQQKPGKAPKLLIYFASSLQSGVPSRFSGSGSGTDFTLTISSLQPEDFATYYCQQSYDFPLTFGQGTKVEIK | 63

The next lines start with the values.

Kd [pM] | Binder
16 | IFWM3314 (antibody, V domains shown, VH IFWH591, VL IFWL1014; converted mAb; also called IFWB3049) VH: EVQLVQSGAEVKKPGESLKISCKGSGYSFTSYWIGWVRQMPGKGLEWMGIIDPSDSDTRYSPSFQGQVTISADKSISTAYLQWSSLKASDTAMYYCARHPGLNWAPDFDYWGQGTLVTVSS VL: DIQMTQSPSSLSASVGDRVTITCRASQSIDRALNWYQQKPGKAPKLLIYFASSLQSGVPSRFSGSGSGTDFTLTISSLQPEDFATYYCQQSFDFPLTFGQGTKVEIK
11 | IFWM3317 (antibody, V domains shown, VH IFWH591, VL IFWL1026; converted mAb; also called IFWB3052) VH: EVQLVQSGAEVKKPGESLKISCKGSGYSFTSYWIGWVRQMPGKGLEWMGIIDPSDSDTRYSPSFQGQVTISADKSISTAYLQWSSLKASDTAMYYCARHPGLNWAPDFDYWGQGTLVTVSS VL: DIQMTQSPSSLSASVGDRVTITCRASQSISKFLNWYQQKPGKAPKLLIYFASSLQSGVPSRFSGSGSGTDFTLTISSLQPEDFATYYCQQSYDFPITFGQGTKVEIK
30 | IFWM3306 (antibody, V domains shown, VH IFWH591, VL IFWL1000; converted mAb; also called IFWB3041) VH: EVQLVQSGAEVKKPGESLKISCKGSGYSFTSYWIGWVRQMPGKGLEWMGIIDPSDSDTRYSPSFQGQVTISADKSISTAYLQWSSLKASDTAMYYCARHPGLNWAPDFDYWGQGTLVTVSS VL: DIQMTQSPSSLSASVGDRVTITCRASQSITNFLNWYQQKPGKAPKLLIYFASSLQSGVPSRFSGSGSGTDFTLTISSLQPEDFATYYCQQSLDFPLTFGQGTKVEIK
17 | IFWM3305 (antibody, V domains shown, VH IFWH591, VL IFWL998; converted mAb; also called IFWB3040) VH: EVQLVQSGAEVKKPGESLKISCKGSGYSFTSYWIGWVRQMPGKGLEWMGIIDPSDSDTRYSPSFQGQVTISADKSISTAYLQWSSLKASDTAMYYCARHPGLNWAPDFDYWGQGTLVTVSS VL: DIQMTQSPSSLSASVGDRVTITCRASQSISKFLNWYQQKPGKAPKLLIYFASSLQSGVPSRFSGSGSGTDFTLTISSLQPEDFATYYCQQSNTLPFTFGQGTKVEIK
32 | IFWM3303 (antibody, V domains shown, VH IFWH591, VL IFWL992; converted mAb; also called IFWB3038) VH: EVQLVQSGAEVKKPGESLKISCKGSGYSFTSYWIGWVRQMPGKGLEWMGIIDPSDSDTRYSPSFQGQVTISADKSISTAYLQWSSLKASDTAMYYCARHPGLNWAPDFDYWGQGTLVTVSS VL: DIQMTQSPSSLSASVGDRVTITCRASQSIGSFLNWYQQKPGKAPKLLIYFASSLQSGVPSRFSGSGSGTDFTLTISSLQPEDFATYYCQQSYSIPITFGQGTKVEIK
16 | IFWM3311 (antibody, V domains shown, VH IFWH591, VL IFWL1009; converted mAb; also called IFWB3046) VH: EVQLVQSGAEVKKPGESLKISCKGSGYSFTSYWIGWVRQMPGKGLEWMGIIDPSDSDTRYSPSFQGQVTISADKSISTAYLQWSSLKASDTAMYYCARHPGLNWAPDFDYWGQGTLVTVSS VL: DIQMTQSPSSLSASVGDRVTITCRASQSIDDFLNWYQQKPGKAPKLLIYFASSLQSGVPSRFSGSGSGTDFTLTISSLQPEDFATYYCQQSHTLPLTFGQGTKVEIK
39 | IFWM3301 (antibody, V domains shown, VH IFWH591, VL IFWL983; converted mAb; also called IFWB3036) VH: EVQLVQSGAEVKKPGESLKISCKGSGYSFTSYWIGWVRQMPGKGLEWMGIIDPSDSDTRYSPSFQGQVTISADKSISTAYLQWSSLKASDTAMYYCARHPGLNWAPDFDYWGQGTLVTVSS VL: DIQMTQSPSSLSASVGDRVTITCRASQSIDGSLNWYQQKPGKAPKLLIYFASSLQSGVPSRFSGSGSGTDFTLTISSLQPEDFATYYCQQSYDFPLTFGQGTKVEIK
21 | IFWM3292 (antibody, V domains shown, VH IFWH624, VL IFWL999; converted mAb; also called IFWB3027) VH: EVQLVQSGAEVKKPGESLKISCKGSGYSFTSYWIGWVRQMPGKGLEWMGIIDPSDSDTAYSPSFQGQVTISADKSISTAYLQWSSLKASDTAMYYCARHPGLNWAPDFDYWGQGTLVTVSS VL: DIQMTQSPSSLSASVGDRVTITCRASQSIDEFLNWYQQKPGKAPKLLIYFASSLQSGVPSRFSGSGSGTDFTLTISSLQPEDFATYYCQQAHSFPLTFGQGTKVEIK
